# Apparent affinities of Ab-91 variants for a coronavirus HR2 peptide

All variants were tested on one target, the spike HR2 peptide PDVDLGDISGINAS (SARS-CoV-2).

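Phage display of a naive human antibody library on the peptide gave the parent. Variants in AAYL51 differ from the parent at up to three CDR positions; double and triple changes were sampled at random. Affinity was read by AlphaSeq, a pooled yeast mating assay with surface-displayed partners. Binding brings cells together so that they mate, and sequencing counts the barcode pairs among the diploids. A regression on co-assayed BCL2-family reference pairs converts the normalised counts of each replicate to an apparent Kd. Each pool was mated in three replicate cultures.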

Each scFv is VL, the linker GGGGSGGGGSGGGGS, VH, as in the parent Ab-91, and differs from it in the CDRs of the heavy chain only.
VL: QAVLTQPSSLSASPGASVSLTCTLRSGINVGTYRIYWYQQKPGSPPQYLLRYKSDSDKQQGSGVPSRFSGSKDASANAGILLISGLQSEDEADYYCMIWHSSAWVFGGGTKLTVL
VH: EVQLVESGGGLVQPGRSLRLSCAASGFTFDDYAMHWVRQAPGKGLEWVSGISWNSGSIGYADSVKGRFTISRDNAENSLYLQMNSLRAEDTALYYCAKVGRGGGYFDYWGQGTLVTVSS

The parent's heavy chain CDRs are GFTFDDYAMH, GISWNSGSIGYADSVK, VGRGGGYFDY; each variant's own CDRs replace them letter for letter. All variants listed here change A33 of the VH, counted from its first residue. Kd is apparent (estimated from mating counts) and averaged on the log scale over replicates with a signal. Smaller is tighter. Where no diploid with the target was found in any replicate, the entry reads "no signal": below detection, most likely a poor binder, though not proof of it. Empty control strains, which show no peptide, gave a signal in 21% of pairings with library AAYL51; the median was 34 µM and 95% of these signals were weaker than 1.8 µM. No background was subtracted. Parent in this assay: reference entry 72 nM, copy in this library 7.5 nM.

The variant GFTFGDYIMH, GISLNSGSIGYADSVK, VGRGGGYFDY showed 120 µM (2 of 3 replicates).
The variant GFTFDAYGMH, GISWNSGSIGYAGSVK, VGRGGGYFDY showed no signal (0 of 3 replicates).
The variant GFYFDDYCMH, GISRNSGSIGYADSVK, VGRGGGYFDY showed 60 µM (1 of 3 replicates).
The variant GFTFDDYSMH, GISWNSGSIGYADSVK, VGRGGGYFDY showed 13 nM (3 of 3 replicates).
The variant GFTFDDYWMH, GISWNSGSIGYADSVK, VGFGGGYFDY showed no signal (0 of 3 replicates).
The variant GFTFDDYSMH, GILWNSGSIGYADSVK, VGRYGGYFDY showed 24 µM (1 of 3 replicates).
The variant GFTFDDYQMH, GISWESGSIHYADSVK, VGRGGGYFDY showed 85 µM (3 of 3 replicates).
The variant GFTFDDYTMH, GISHNSGSIGHADSVK, VGRGGGYFDY showed no signal (0 of 3 replicates).
The variant GHTFDDYYMH, GISWNSGSIGYADSVV, VGRGGGYFDY showed 330 µM (1 of 3 replicates).
The variant GFTFDDYSMH, KISWNSGSIGYADGVK, VGRGGGYFDY showed 3.2 µM (1 of 3 replicates).
The variant GFTFDDTYMH, GISWNSGSIGYADSVK, VGRGFGYFDY showed no signal (0 of 3 replicates).
The variant GATFDDYVMH, GISWNSGAIGYADSVK, VGRGGGYFDY showed 24 µM (1 of 3 replicates).
The variant GFTFDDYTMH, GHSWNSGWIGYADSVK, VGRGGGYFDY showed no signal (0 of 3 replicates).
The variant PFTFDDYGMH, GISWNSGSIGYADSVK, VGRGGGYFCY showed 330 µM (1 of 3 replicates).
The variant GFTFDDYLMH, GISWNSGSIGYADSVK, VMLGGGYFDY showed 6.3 µM (1 of 3 replicates).
The variant GFTFIDYWMH, GISWNSGSIGYADSVK, VGRSGGYFDY showed 14 µM (2 of 3 replicates).
The variant GFTFDDYLMS, GIEWNSGSIGYADSVK, VGRGGGYFDY showed no signal (0 of 3 replicates).
The variant EFTFDDYYMH, GISWNSGSIGYADSVK, VGRGGGYFDV showed 300 µM (1 of 3 replicates).
The variant GFTFDDYGMH, GISWNSGSIGYKDRVK, VGRGGGYFDY showed no signal (0 of 3 replicates).
The variant GFTFDDYEMH, GISRNSGSIGYADSVK, VGRGGGYFWY showed 57 µM (3 of 3 replicates).
The variant GFTFDDYYMH, GISWNSGSIGYADYRK, VGRGGGYFDY showed 99 µM (1 of 3 replicates).
The variant GFTFDDYFMH, GIHWNSGSIGYADSVK, VGRGRGYFDY showed no signal (0 of 3 replicates).
The variant GFTFDDYHEH, GISWNSGSIGYADSDK, VGRGGGYFDY showed no signal (0 of 3 replicates).
The variant GFTFDDYEMH, GISWNSGSIGYADSVK, VGRGGGRFDY showed 59 µM (2 of 3 replicates).
The variant GFTHDDYTMH, RISWNSGSIGYADSVK, VGRGGGYFDY showed 230 µM (2 of 3 replicates).
The variant GFTFDDYDMH, GISWNSGSIGYTCSVK, VGRGGGYFDY showed 40 µM (1 of 3 replicates).
The variant GFTFLDYGMH, GISWNKGSIGYADSVK, VGRGGGYFDY showed 660 nM (1 of 3 replicates).
The variant GFTFDDYLMH, GISWNSGSIGYADSVK, PGRGGGYFSY showed no signal (0 of 3 replicates).
The variant GFTFIDYGMH, GISWNSGSIGPADSVK, VGRGGGYFDY showed no signal (0 of 3 replicates).
The variant GFTFDDYEMH, GISWNSGSIGYADSVK, VGRGGGYFDY showed no signal (0 of 3 replicates).
The variant GFTFDDYYMH, GISWNSGSIGYIDSVK, VGRGGSYFDY showed 290 µM (2 of 3 replicates).
The variant GFTFDDYYMH, GISWNSGSIGYADSHK, VGRGGDYFDY showed no signal (0 of 3 replicates).
The variant GFTFPDYWMH, GISWNSGSIGYADSVK, VGRGGEYFDY showed no signal (0 of 3 replicates).
The variant GFTFDDYHMH, GISWNSGSIGYAESAK, VGRGGGYFDY showed no signal (0 of 3 replicates).
The variant GFTFDDYEMH, GISWNMFSIGYADSVK, VGRGGGYFDY showed 1.9 mM (1 of 3 replicates).
The variant GFTFDDYEVH, GISWNSGSIGYADSVK, VGRGGGYFDQ showed 61 µM (2 of 3 replicates).
The variant GFTFDDYNMH, GISWNSGSIGYAGSVK, VGRGGDYFDY showed 61 µM (1 of 3 replicates).

From the AlphaSeq antibody data of Engelhart et al. 2022 (doi:10.1038/s41597-022-01779-4), copy in the FLAb collection.